Experiment [1] concerns the target FRB/FKBP1A interaction (Homo sapiens, UniProt P42345+P62942). The conditions noted are these: NIN/IC format; Rapa 300 nM; replicates 1-4; ref previous study; cited from earlier work.
The target in experiment [2] is Δ11S (third component of tri-part Nanoluciferase, tNLuc). In words: luminescence titration of tri-part NanoLuc complementation.

pKd: −log10 of the molar value.

Consider `CO[C@H]1C[C@@H]2CC[C@@H](C)[C@@](O)(O2)C(=O)C(=O)N2CCCC[C@H]2C(=O)O[C@H]([C@H](C)C[C@@H]2CC[C@@H](O)[C@H](OC)C2)CC(=O)[C@H](C)/C=C(\C)[C@@H](O)[C@@H](OC)C(=O)[C@H](C)C[C@H](C)/C=C/C=C/C=C/1C` [rapamycin, Rapamycin], for which the “ELISA_CIC signal (Fig. EV1C)” value in experiment [1] is reported as 124.999.

As usually defined, the pKd is −log10 of the Kd, conventionally taken in molar units. With “β10-β9 tandem tNLuc peptide fused to recombinant protein G (C2 domain) and His tag”, the pKd in experiment [2] is 7.95.

Source of the values: PMC11791039 (2024).
